How the values were obtained:
GSK3-β (AA 1-420) = GSK3-β (AA 1-420) (Homo sapiens, UniProt P49841); experiment: GSK-3 inhibition assay (coupled enzyme system); settings: read-out: GSK3-β Activity (Ki); 10 μM ATP, 300 μM peptide, 60 nM GSK-3β, 30° C.
Procedure: Compounds were screened for their ability to inhibit GSK3-β (AA 1-420) activity using a standard coupled enzyme system (Fox et al. (1998) Protein Sci. 7, 2249). Reactions were carried out in a solution containing 100 mM HEPES (pH 7.5), 10 mM MgCl2, 25 mM NaCl, 300 μM NADH, 1 mM DTT and 1.5% DMSO. Final substrate concentrations in the assay were 10 μM ATP (Sigma Chemicals, St Louis, Mo.) and 300 μM peptide (HSSPHQS(PO3H2)EDEEE, American Peptide, Sunnyvale, Calif.). Reactions were carried out at 30° C. and 60 nM GSK-3β. Final concentrations of the components of the coupled enzyme system were 2.5 mM phosphoenolpyruvate, 300μM NADH, 30 μg/ml pyruvate kinase and 10 μg/ml lactate dehydrogenase.
An assay stock buffer solution was prepared containing all of the reagents listed above with the exception of ATP and the test compound of interest. 59 μl of the test reaction was placed in a 96 well ½-diameter plate (Corning, Corning, N.Y.) then treated with 1 μl of a 2 mM DMSO stock containing the test compound (final compound concentration 30 μM). The plate was incubated for ˜10 minutes at 30° C. then the reaction initiated by addition of 7 μl of ATP (final concentration 10 μM). Rates of reaction were obtained using a Molecular Devices Spectramax plate reader (Sunnyvale, Calif.) over a 5 minute read time at 30° C.
(§1) The compound numbers correspond to the compound numbers in Table 1.

Chains of the proteins cited; added tags and fusions are not shown.
UniProt P49841, whole entry: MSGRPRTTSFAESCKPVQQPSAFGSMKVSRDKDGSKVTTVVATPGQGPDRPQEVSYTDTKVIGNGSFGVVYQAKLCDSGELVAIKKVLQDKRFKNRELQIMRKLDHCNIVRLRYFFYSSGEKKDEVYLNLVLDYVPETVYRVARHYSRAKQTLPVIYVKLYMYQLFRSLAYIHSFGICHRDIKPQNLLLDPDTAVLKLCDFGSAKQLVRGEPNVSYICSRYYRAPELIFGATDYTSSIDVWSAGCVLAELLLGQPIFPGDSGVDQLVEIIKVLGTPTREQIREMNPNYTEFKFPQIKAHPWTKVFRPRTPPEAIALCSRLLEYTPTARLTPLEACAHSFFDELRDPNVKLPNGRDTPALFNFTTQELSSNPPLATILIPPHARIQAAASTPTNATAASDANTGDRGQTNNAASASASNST
UniProt O14965, whole entry: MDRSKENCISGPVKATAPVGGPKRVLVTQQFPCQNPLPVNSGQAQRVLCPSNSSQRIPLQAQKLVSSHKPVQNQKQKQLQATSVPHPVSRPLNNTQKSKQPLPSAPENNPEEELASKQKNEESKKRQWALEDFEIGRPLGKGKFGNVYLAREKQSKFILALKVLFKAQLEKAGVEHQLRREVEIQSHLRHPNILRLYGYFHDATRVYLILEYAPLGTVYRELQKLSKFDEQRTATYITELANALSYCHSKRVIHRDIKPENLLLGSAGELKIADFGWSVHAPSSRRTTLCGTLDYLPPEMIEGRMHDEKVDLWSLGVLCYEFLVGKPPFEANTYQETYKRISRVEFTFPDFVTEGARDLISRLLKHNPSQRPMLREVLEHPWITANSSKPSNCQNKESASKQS

Syk = Syk (Homo sapiens, UniProt P43405); experiment: Syk inhibition assay (coupled enzyme assay); settings: read-out: Syk Activity (IC50); 200 μM ATP, 4 μM poly Gly-Tyr peptide, 30° C.
Aurora2 = Aurora2 (Homo sapiens, UniProt O14965); experiment: Aurora2 inhibition assay (coupled enzyme assay); settings: read-out: Aurora2 Activity (IC50); 800 μM peptide LRRASLG, 70 nM Aurora2, 30° C.
Procedure: Compounds are screened in the following manner for their ability to inhibit Aurora2 using a standard coupled enzyme assay (Fox et al (1998). Protein Sci 7, 2246). To an assay stock buffer solution containing 0.1M HEPES 7.5, 10 mM MgCl2, 1 mM DTT, 25 mM NaCl, 2.5 mM prosphoenolpyruvate, […], […] pyruvate kinase, […] lactate dehydrogenase, […], and 800 μM peptide (LRRASLG, American Peptide, Sunnyvale, Calif.) is added a DMSO solution of a compound of the present invention to a final concentration of 30 μM. The resulting mixture is incubated at 30° C. for 10 minutes. The reaction was initiated by the addition of 10 μL of Aurora2 stock solution to give a final concentration of 70 nM in the assay. The rates of reaction are obtained by monitoring absorbance at 340 nm over a 5 minute read time at 30° C. using a BioRad Ultramark plate reader (Hercules, Calif.). The IC50 values are determined from the rate data as a function of inhibitor concentration.
as §1

Ki (GSK3-β (AA 1-420)): < 0.1 µM
IC50 (Syk): > 2 µM
IC50 (Aurora2): > 2 µM
SMILES: Clc1cccc(Cl)c1CNc1cccc(Nc2nccc(-c3nccs3)n2)c1
